Assay [1] concerns the target Pseudomonas fluorescens phosphinothricin dehydrogenase (PPTDH, PfGluDH; WP_150701510.1) mutant A164G_R205K_T332A, SEQ ID No.1 (Pseudomonas azerbaijanoccidentalis, UniProt A0ABS6QXK2, A164G/R205K/T332A). As to conditions: read-out: Km^A (apparent substrate affinity for NADPH), PPO 2-30 mM, 50 mM ammonium sulfate, NADPH 1-15 mM, 100 mM phosphate buffer pH 7.0, 40° C.
The target of assay [2] is Pseudomonas fluorescens phosphinothricin dehydrogenase (PPTDH, PfGluDH; NCBI accession number WP_150701510.1), wild type (Pseudomonas azerbaijanoccidentalis, UniProt A0ABS6QXK2). The assay can be described thus: Determination of kinetic parameters of wild-type phosphinothricin dehydrogenase (PPO reductive amination with NADPH). As to conditions: read-out: Km^A (apparent substrate affinity for NADPH), PPO 2-30 mM, 50 mM ammonium sulfate, NADPH 1-15 mM, 100 mM phosphate buffer pH 7.0, 40° C.

The results in this text go back to patent publication US12152264B2, “Phosphinothricin dehydrogenase mutant, genetically engineered bacterium and one-pot multi-enzyme synchronous directed evolution method” (ZHEJIANG UNIVERSITY OF TECHNOLOGY, priority 2020, dated 2024).

As to `NC(=O)C1=CN([C@@H]2O[C@H](COP(=O)(O)OP(=O)(O)OC[C@H]3O[C@@H](n4cnc5c(N)ncnc54)[C@H](OP(=O)(O)O)[C@@H]3O)[C@@H](O)[C@H]2O)C=CC1` [NADPH], the Km (commonly the concentration of substrate that gives half-maximal velocity) in assay [1] came to 90 µM; in assay [2], 140 µM.
